# Measurements as given in PMC4128571 (Drug testing and analysis, 2014).
# Sequences of proteins named here, by UniProt entry; tags and fusion partners are left off.
# UniProt P23977, whole entry: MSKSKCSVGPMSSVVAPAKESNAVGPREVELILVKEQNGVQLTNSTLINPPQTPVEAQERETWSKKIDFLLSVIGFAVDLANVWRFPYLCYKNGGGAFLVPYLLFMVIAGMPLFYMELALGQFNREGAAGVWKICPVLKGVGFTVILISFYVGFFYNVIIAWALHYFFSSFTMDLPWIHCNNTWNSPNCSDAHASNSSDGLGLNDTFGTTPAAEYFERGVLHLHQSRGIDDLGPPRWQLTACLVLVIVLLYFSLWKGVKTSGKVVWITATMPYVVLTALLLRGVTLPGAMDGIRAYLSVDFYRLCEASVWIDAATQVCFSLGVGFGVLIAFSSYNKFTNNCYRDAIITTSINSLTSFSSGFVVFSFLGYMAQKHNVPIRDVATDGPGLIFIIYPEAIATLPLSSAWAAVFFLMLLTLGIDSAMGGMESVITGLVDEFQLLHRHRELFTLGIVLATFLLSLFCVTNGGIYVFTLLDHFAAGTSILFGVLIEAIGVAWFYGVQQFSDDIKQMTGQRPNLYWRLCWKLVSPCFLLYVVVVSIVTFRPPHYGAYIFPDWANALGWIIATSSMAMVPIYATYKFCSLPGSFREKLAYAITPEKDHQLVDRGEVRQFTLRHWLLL
# UniProt P31652, whole entry: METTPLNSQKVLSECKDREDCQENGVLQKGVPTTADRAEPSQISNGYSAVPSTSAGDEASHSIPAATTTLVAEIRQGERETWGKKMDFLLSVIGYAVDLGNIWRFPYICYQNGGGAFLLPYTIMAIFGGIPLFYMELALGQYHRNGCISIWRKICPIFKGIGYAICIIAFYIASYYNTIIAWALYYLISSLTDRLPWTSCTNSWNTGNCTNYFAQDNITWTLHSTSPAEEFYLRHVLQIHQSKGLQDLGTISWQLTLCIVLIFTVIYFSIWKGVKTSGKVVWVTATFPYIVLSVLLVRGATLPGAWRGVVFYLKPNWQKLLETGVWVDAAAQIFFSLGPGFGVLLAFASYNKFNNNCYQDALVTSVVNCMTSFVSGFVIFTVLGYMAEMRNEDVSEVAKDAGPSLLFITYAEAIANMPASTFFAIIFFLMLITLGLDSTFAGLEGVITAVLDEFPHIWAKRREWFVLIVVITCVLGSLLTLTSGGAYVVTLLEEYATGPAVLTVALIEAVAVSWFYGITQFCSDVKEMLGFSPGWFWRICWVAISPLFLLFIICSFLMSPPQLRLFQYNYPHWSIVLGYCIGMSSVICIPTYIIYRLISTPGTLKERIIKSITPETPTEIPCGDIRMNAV
# Key:
# [1] = biological target: dopamine transporters (DAT) (Rattus norvegicus, UniProt P23977); assay type: biochemical; conditions: rat brain synaptosomes
# 5-HT transporters (SERT) = 5-HT transporters (SERT) (Rattus norvegicus, UniProt P31652); assay type: biochemical; conditions: rat brain synaptosomes
smiles,measurement,setting,value
C[C@H](N)Cc1ccccc1 [d-Amphetamine],Efficacy to evoke release at DAT (of maximal release),[1],fully efficacious
same,Efficacy to evoke release at SERT (of maximal release),5-HT transporters (SERT),fully efficacious
